Results: ChEMBL document CHEMBL3232785, “Basic quinolinonyl diketo acid derivatives as inhibitors of HIV integrase and their activity against RNase H function of reverse transcriptase” (J Med Chem, 2014)

Legend:
[1] = biological target: T1, Human immunodeficiency virus type 1 integrase (Human immunodeficiency virus 1, UniProt Q7ZJM1); assay: Inhibition of HIV1 integrase 3'-processing activity by gel-based assays
[2] = biological target: T1, Human immunodeficiency virus type 1 integrase; assay: Inhibition of HIV1 integrase strand transfer activity by gel-based assay
[3] = biological target: Human immunodeficiency virus type 1 reverse transcriptase (Human immunodeficiency virus 1, UniProt Q72547); assay: Inhibition of HIV1 RNase H function of recombinant reverse transcriptase using an 18-nt 3'-fluorescein-labeled RNA annealed to complementary 18-nt 5'-dabsyl-labeled DNA as substrate after 10 mins by fluorescence spectrometer analysis

Row | SMILES | IC50 [1] [µM] | IC50 [2] [µM] | IC50 [3] [µM]
1 | CCOC(=O)/C(O)=C/C(=O)c1cn(Cc2ccc(F)cc2)c2cc(N3CCN(C)CC3)ccc2c1=O | 56 | 0.6 | 18.5
2 | O=C(O)/C(O)=C/C(=O)c1cn(Cc2ccc(F)cc2)c2cc(N3CCNCC3)ccc2c1=O | 65 | 2 | 28.7
3 | CC(=O)N1CCN(c2ccc3c(=O)c(C(=O)/C=C(\O)C(=O)O)cn(Cc4ccc(F)cc4)c3c2)CC1 | 8.5 | 0.08 | 3.3
4 | CN(C)c1ccc2c(=O)c(C(=O)/C=C(\O)C(=O)O)cn(Cc3ccc(F)cc3)c2c1 | 5.1 | 0.15 | 6.6
